Drawing on PubChem BioAssay AID2014 (Sanford-Burnham Center for Chemical Genomics, 2009), this text covers inhibition for 99 compounds.

By UniProt entry, the sequences of proteins in these tests, tags left out.
UniProt P11940, whole entry: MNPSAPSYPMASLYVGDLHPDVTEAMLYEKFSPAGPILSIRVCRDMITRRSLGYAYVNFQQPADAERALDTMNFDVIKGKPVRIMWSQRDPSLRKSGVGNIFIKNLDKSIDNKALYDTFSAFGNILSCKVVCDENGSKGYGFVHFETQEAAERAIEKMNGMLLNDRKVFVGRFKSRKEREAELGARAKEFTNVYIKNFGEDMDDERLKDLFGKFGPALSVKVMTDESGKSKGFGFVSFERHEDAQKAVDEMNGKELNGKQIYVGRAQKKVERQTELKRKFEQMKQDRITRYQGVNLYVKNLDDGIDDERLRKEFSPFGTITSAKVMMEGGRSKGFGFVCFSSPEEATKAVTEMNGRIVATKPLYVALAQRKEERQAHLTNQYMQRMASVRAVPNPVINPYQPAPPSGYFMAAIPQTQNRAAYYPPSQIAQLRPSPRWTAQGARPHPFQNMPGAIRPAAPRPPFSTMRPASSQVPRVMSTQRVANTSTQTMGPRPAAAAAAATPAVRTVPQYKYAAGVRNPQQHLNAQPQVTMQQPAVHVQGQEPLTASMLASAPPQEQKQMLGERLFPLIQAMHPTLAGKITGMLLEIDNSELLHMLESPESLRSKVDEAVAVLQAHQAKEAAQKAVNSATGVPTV

Only a part is listed here, and it is no random draw. Some salts or complexes appear as unconnected parts, following the source record. The source made the active and inactive calls. The rule behind the calls is not given here.

This test deals with Polyadenylate-binding protein 1 (Homo sapiens) (UniProt P11940). The test can be described thus: PABP poly(A) RNA binding inhibitors, primary screen, biochemical, fluorescence polarization, uHTS (AID 2014). The note with it: at 35 µM, active compounds read high.
Regarding `CCOC(=O)C(CC)C1=NC(C)(C)Cc2ccccc21.O=[N+]([O-])c1cc([N+](=O)[O-])c(O)c([N+](=O)[O-])c1` (centres undefined), the inhibition is inactive: -4.7%.
Take `O=C(/C=C/c1ccccc1)OC1CN2CCC1CC2` (centres undefined): the inhibition was inactive: 8.2%.
Regarding `CN1CCCCC1COC(=O)C1(O)c2ccccc2CCc2ccccc21` (centres undefined), the inhibition was inactive: -8.1%.
Turning to `COc1ccccc1OP(C)(=O)Nc1c(C)cccc1C` (centres undefined), the inhibition is inactive: -3.1%.
Under `O=P1(Nc2ncccn2)COc2ccccc2OC1` stands inactive: 17%; under `CCCOc1ccc(NP(C)(=O)Oc2ccc(Cl)cc2)cc1` (centres undefined), inactive: -9.2%; under `CP(=O)(Nc1ccc(SC(F)(F)F)cc1)Oc1ccccc1` (centres undefined), inactive: 3.9%.
In the case of `Nc1cccc([As](=O)(O)c2ccccc2)c1` it was inactive: 8.5%; in that of `O=[As](O)(c1cccs1)c1cccs1`, inactive: 1.3%; in that of `Cc1ccc(OCC(=O)OC2CN3CCC2CC3)cc1` (centres undefined), inactive: 11%.
`O=P1(Nc2ccc(Br)cn2)COc2ccccc2OC1`: the inhibition is inactive: 3.7%.
Under `O=C(O)c1cccc(Nc2c([N+](=O)[O-])cc([N+](=O)[O-])cc2[N+](=O)[O-])c1` stands inactive: 5.6%; under `CCOP1(=S)c2c(C)nn(CCC#N)c2N=C(c2ccccc2F)N1C` (centres undefined), inactive: 1.9%; under `O=P(Nc1nccs1)(Oc1ccccc1)Oc1ccccc1`, inactive: 9.9%.
As for `O=P(Nc1nccs1)(c1ccccc1)c1nc2ccccc2s1` (centres undefined), the inhibition is inactive: 44.8%.
In the case of `O=C(O)COc1ccc([As](=O)(O)O)cc1[N+](=O)[O-]` it was inactive: -1.1%.
In the case of `Nc1ccccc1[As](=O)(O)c1ccccc1` it was inactive: 7%; in that of `NC(=O)Nc1ccc([As](=O)(O)O)cc1`, inactive: -6.2%; in that of `CCOP1(=S)c2c(C)nn(CCC#N)c2N=C(c2ccc(F)cc2)N1C` (centres undefined), inactive: -3.1%.
Under `CN(C(=O)Cc1ccccc1)[C@@H]1CC[C@]2(CCCO2)C[C@H]1N1CCCC1` stands inactive: 15.9%; under `O=[N+]([O-])c1ccc2c(c1)nnn2O`, inactive: 3.1%; under `CC1=NCCc2c1[nH]c1ccccc21.O=[N+]([O-])c1cc([N+](=O)[O-])c(O)c([N+](=O)[O-])c1`, inactive: 0.2%.
In the case of `O=C(OC1CN2CCC1CC2)c1ccc(Cl)cc1` (centres undefined), the inhibition was inactive: 6.1%.
In the case of `O=[As](O)(O)c1cccnc1` it was inactive: 7.5%; in that of `COc1cc(C(=O)NCC2(N3CCOCC3)CCCCC2)cc(Cl)c1OC(C)C`, inactive: -7.1%.
In the case of `CS(=O)(=O)c1ccc(Cl)c(NC(=O)COC(=O)C(O)(c2ccccc2)c2ccccc2)c1` it was inactive: -3.4%; in that of `COc1ccccc1OP(C)(=O)Nc1cccc(Br)c1` (centres undefined), inactive: 2.5%; in that of `Cc1cccc(OCC(=O)OC2CN3CCC2CC3)c1` (centres undefined), inactive: 0.6%.
In the case of `O=[As](O)(c1cccc(O)c1)c1cccc(O)c1` it was inactive: -3%; in that of `Cc1cc(C)cc(OP(C)(=O)Nc2ccc(C)cc2C)c1` (centres undefined), inactive: -4.7%; in that of `CCOC(=O)c1ccc(NP(C)(=O)Oc2cc(C)cc(C)c2)cc1` (centres undefined), inactive: -7.2%.
`Cc1cc(C)cc(OP(C)(=O)Nc2ccccn2)c1` (centres undefined): the inhibition was inactive: -1.9%.
In the case of `CP(=O)(Nc1cccc(Br)c1)Oc1ccccc1` (centres undefined) it was inactive: 11.8%; in that of `Cc1ccc(NCCc2c([N+](=O)[O-])cc([N+](=O)[O-])cc2[N+](=O)[O-])cc1`, inactive: -6.4%; in that of `Cc1ccc(C)c(NP(C)(=O)Oc2ccccc2)c1` (centres undefined), inactive: 0.8%.
`CCCOP(=S)(Nc1nc(N)cc(=O)[nH]1)OCCC`: the inhibition is inactive: 8%.
Under `CCOP(=O)(Nc1cccc2ccccc12)OCC` stands inactive: -1.1%; under `O=P1(Nc2nc3ccc(Cl)cc3s2)COc2ccccc2O1` (centres undefined), inactive: 9.4%; under `CCOc1ccc(C2=NCC(CBr)S2)cc1` (centres undefined), inactive: -23.1%.
In the case of `CC(C)(C)C(=O)NC(Sc1ccccc1)C(Cl)(Cl)Cl` (centres undefined) it was inactive: 82.4%; in that of `CC(C)c1ccc(OP(C)(=O)Nc2ccc(SC(F)(F)F)cc2)cc1` (centres undefined), inactive: -1.8%.
Turning to `CP(=O)(Nc1ccccc1F)Oc1ccccc1` (centres undefined), the inhibition is inactive: 12.8%.
In the case of `O=C(OCCN1CCN(CCOCc2ccccc2)CC1)C(O)(c1ccccc1)c1ccccc1` it was inactive: 4.4%; in that of `C[C@H]1OP(=O)(Oc2ccccc2)C[C@@H]2O[C@@H]21` (some centres undefined), inactive: -0.9%; in that of `C[C@@H]1C=CCP(=O)(Oc2ccccc2)O1` (some centres undefined), inactive: -5.4%.
Under `CC(=O)c1ccc(N2CC2c2ccncc2)cc1` (centres undefined) stands inactive: 0.8%; under `O=C(OC1CN2CCC1CC2)c1ccc([N+](=O)[O-])cc1` (centres undefined), inactive: 7.7%.
Under `CC(=O)Nc1ccc([As](=O)(O)O)c(O)c1` stands inactive: -8.9%; under `COc1ccc2c(c1O)-c1c(O)c(OC)cc3c1[C@H](C2)[N+](C)(C)CC3.O=[N+]([O-])c1cc([N+](=O)[O-])c([O-])c([N+](=O)[O-])c1[O-]`, inactive: 31.3%; under `CC(=O)Nc1ccc(Oc2c([N+](=O)[O-])cc([N+](=O)[O-])cc2[N+](=O)[O-])cc1`, inactive: 17.9%.
For `c1ccc(-c2nn[nH]n2)c(-c2nn[nH]n2)c1`, the inhibition was inactive: -1%.
For `CCOC(=O)NC(Sc1ccccc1)C(Cl)(Cl)Cl` (centres undefined), the inhibition was inactive: 0.5%.
Consider `Cc1ccc(NP(=O)(Oc2cccc(C)c2)Oc2cccc(C)c2)nc1`, for which the inhibition is inactive: 6.8%.
Under `O=C(NC1CCS(=O)(=O)C1)NP(=S)(Oc1ccccc1)Oc1ccccc1` (centres undefined) stands inactive: 19.4%; under `CCNC(=S)/N=C(\N)N[N+](=O)[O-]`, inactive: 5.8%.
In the case of `COc1ccc(OP(C)(=O)Nc2ccc(SC(F)(F)F)cc2)cc1` (centres undefined) it was inactive: 82.4%.
With `CCOC(=O)c1ccc(NP(C)(=O)Oc2ccc(F)cc2)cc1` (centres undefined), the inhibition is inactive: 0.9%.
Under `O=C(OC1CN2CCC1CC2)c1ccccc1` (centres undefined) stands inactive: -10.5%; under `CCC(=O)N1C2C3N(C(=O)CC)C1C1N(C(=O)CC)C(C(N1C(=O)CC)N3C(=O)CC)N2C(=O)CC`, inactive: 2.3%; under `CCN(CC)CCCOC(=O)C(O)(c1ccccc1)C1CCCCC1` (centres undefined), inactive: -7.8%.
Take `COC(=O)c1cc2c(s1)N=C(c1ccccc1)N(C)P2(=O)N1CCOCC1` (centres undefined): the inhibition is inactive: -4.5%.
In the case of `Cc1ccc(OP(=O)(Nc2ccccn2)Oc2ccc(C)cc2)cc1` it was inactive: -4.9%; in that of `CC(=O)NC(SC(=S)N(CC(C)C)CC(C)C)C(Cl)(Cl)Cl` (centres undefined), inactive: 1.9%; in that of `Cc1ccccc1OP(=O)(Nc1ccccn1)Oc1ccccc1C`, inactive: -2.4%.
Under `O=[N+]([O-])c1cc([N+](=O)[O-])c(OC2CCCCC2O)c([N+](=O)[O-])c1` (centres undefined) stands inactive: 1.7%.
For `CCCCCOc1ccc(NP(C)(=O)Oc2ccc(Cl)cc2Cl)cc1` (centres undefined), the inhibition is inactive: -6.3%.
As to `O=c1c2cc([N+](=O)[O-])ccc2[nH]c2c([N+](=O)[O-])cc([N+](=O)[O-])cc12`, the inhibition is inactive: 3.9%.
On to `CN(C)C(=O)Oc1noc2ccccc12`, for which the inhibition was inactive: 1%.
`CP(=O)(Nc1ccccc1)Oc1ccc(F)cc1` (centres undefined): the inhibition was inactive: -4.4%.
In the case of `CN(C)C1(CNC(=O)c2ccc(Cl)c(S(N)(=O)=O)c2)CCCCC1` it was inactive: 6.6%.
In the case of `O=P(Nc1ccccn1)(c1ccc(Br)cc1)c1ccc(Br)cc1` it was inactive: -0.5%; in that of `COc1ccc(OP(C)(=O)Nc2cccc(Br)c2)cc1` (centres undefined), inactive: -2.1%.
Under `COc1ccc(NP(C)(=O)Oc2ccccc2OC)cc1` (centres undefined) stands inactive: 9.3%; under `O=P(Nc1nc2ccccc2s1)(c1ccccc1)c1ccccc1`, inactive: -10.5%.
As to `CN(C)CCOC(=O)C(O)(c1ccccc1)C1CCCCC1` (centres undefined), the inhibition was inactive: 0.1%.
Take `C[C@H]1OP(=O)(Oc2ccccc2)[C@H](O)[C@H](O)[C@H]1N=[N+]=[N-]` (some centres undefined): the inhibition is inactive: -2.9%.
As for `O=[As](O)(c1ccccc1)c1ccc(O)cc1`, the inhibition was inactive: 2.2%.
For the compound `O=[N+]([O-])c1cc([N+](=O)[O-])c(NCC2CCS(=O)(=O)C2)c([N+](=O)[O-])c1` (centres undefined), the inhibition was inactive: 1.9%.
Consider `Cc1cc(-c2cccc3ccccc23)c(C)cn1.O=[N+]([O-])c1cc([N+](=O)[O-])c(O)c([N+](=O)[O-])c1`, for which the inhibition is inactive: -0.5%.
In the case of `O=[N+]([O-])c1ncn(CCn2cnc([N+](=O)[O-])n2)n1` it was inactive: -6%; in that of `O=[N+]([O-])c1ccc(OP2(=O)COCCO2)cc1` (centres undefined), inactive: 2.7%.
Under `O=[N+]([O-])c1ccc(O)c(/C=N/Nc2ccc([N+](=O)[O-])cc2[N+](=O)[O-])c1` stands inactive: 4.6%; under `O=C(OC1CN2CCC1CC2)c1cccc(Cl)c1` (centres undefined), inactive: 0.7%.
In the case of `C(Cc1nn[nH]n1)Cc1nn[nH]n1` it was inactive: 47.7%.
As to `Nc1ccc([As](=O)(O)c2ccc([N+](=O)[O-])cc2)cc1`, the inhibition was inactive: 0.4%.
With `O=P(Nc1nccs1)(c1ccccc1)c1ccccc1`, the inhibition is inactive: 1.8%.
In the case of `CC(C)C(=O)NC(Sc1ccccc1)C(Cl)(Cl)Cl` (centres undefined) it was inactive: 10.1%; in that of `CP(=O)(Nc1ccc(SC(F)(F)F)cc1)Oc1ccc(F)cc1` (centres undefined), inactive: -9.2%; in that of `c1nnnn1CCn1cnnn1`, inactive: -7.6%.
As for `CCOP(C)(=S)SCC(=O)NC(C)(CC)C(=O)O` (centres undefined), the inhibition is inactive: 4.5%.
In the case of `CP(=O)(Nc1ccc2c(c1)OCCO2)Oc1ccccc1` (centres undefined) it was inactive: 13.2%.
Take `Cc1ccccc1NP(C)(=O)Nc1ccccc1C`: the inhibition was inactive: -5%.
Under `CCN(CC)CC(O)COC(=O)C(O)(c1ccccc1)C1CCCCC1` (centres undefined) stands inactive: 4.2%; under `COc1ccc(C2=NCC(CBr)S2)cc1` (centres undefined), inactive: 11.3%.
In the case of `COc1ccc(OP(C)(=O)Nc2ccc(Br)cc2)cc1` (centres undefined) it was inactive: -4%; in that of `Cc1ccc(NP(=O)(Oc2ccccc2)Oc2ccccc2)nc1`, inactive: -8.9%.
Under `CP(=O)(Oc1ccccc1)N1CCOC1=O` (centres undefined) stands inactive: 8.1%.
As to `CCc1ccc(OP(C)(=O)Nc2cccnc2)cc1` (centres undefined), the inhibition is inactive: -16.5%.
Take `O=[N+]([O-])c1cc([N+](=O)[O-])c(CCNc2ccccc2)c([N+](=O)[O-])c1`: the inhibition was inactive: -3.7%.
